2 compounds from US4018930A, “Substituted indolobenzazepines” (Endo Laboratories, Inc., priority 1975, dated 1977) can be followed below.

The subject of this assay is mice. Kind of assay: Phenylquinone Writhing (P.Q.W.) test, analgesic activity. The settings on record: for P.Q.W. ED50 (analgesic ED50): phenyl-p-benzoquinone 2.5 mg/kg ip 30 min after dose, 30-minute count. The class given is in vivo, mouse. Background: An intraperitoneal irritant provokes the stretching counted in writhing tests.

Take `C#CCN1CC[C@@H]2[C@@H](C1)c1cccc3c1N2c1ccccc1CC3` (racemic): the “analgesic activity (in words)” value (compared to codeine phosphate) is “analgesic activity compared to codeine phosphate”. The “P.Q.W. ED50 (analgesic ED50)” value (po, mouse) was determined as 2 mg/kg.
As for `C=CCN1CC[C@@H]2[C@@H](C1)c1cccc3c1N2c1ccccc1CC3.Cl` (racemic), the “analgesic potency relative to codeine phosphate” value (more potent than codeine phosphate, po, mouse) is “about 20 X”. Further, for the setting “po, mouse”, the “P.Q.W. ED50 (analgesic ED50)” value is 1 mg/kg.
